According to patent US9072794B2 (HANMI SCIENCE CO., LTD, priority 2010, dated 2015):

Test system: diet-induced obesity (DIO) mice
Assay: Co-administration of native glucagon with long-acting exendin-4 conjugate in DIO mice
Type: in vivo

CSCC[C@H](NC(=O)[C@H](CC(C)C)NC(=O)[C@H](Cc1c[nH]c2ccccc12)NC(=O)[C@H](CCC(N)=O)NC(=O)[C@@H](NC(=O)[C@H](Cc1ccccc1)NC(=O)[C@H](CC(=O)O)NC(=O)[C@H](CCC(N)=O)NC(=O)[C@H](C)NC(=O)[C@H](CCCN=C(N)N)NC(=O)[C@H](CCCN=C(N)N)NC(=O)[C@H](CO)NC(=O)[C@H](CC(=O)O)NC(=O)[C@H](CC(C)C)NC(=O)[C@H](Cc1ccc(O)cc1)NC(=O)[C@H](CCCCN)NC(=O)[C@H](CO)NC(=O)[C@H](Cc1ccc(O)cc1)NC(=O)[C@H](CC(=O)O)NC(=O)[C@H](CO)NC(=O)[C@@H](NC(=O)[C@H](Cc1ccccc1)NC(=O)[C@@H](NC(=O)CNC(=O)[C@H](CCC(N)=O)NC(=O)[C@H](CO)NC(=O)[C@@H](N)Cc1c[nH]cn1)[C@@H](C)O)[C@@H](C)O)C(C)C)C(=O)N[C@@H](CC(N)=O)C(=O)N[C@H](C(=O)O)[C@@H](C)O [native glucagon, glucagon]
fluctuation in blood glucose level (DIO mice, native glucagon 200 μg/kg BID co-administered with long-acting exendin-4 conjugate 20 μg/kg once a week, FIG. 5): severe fluctuation
toxicity in test animals (native glucagon (once a day) co-administered with long-acting exendin-4 conjugate (once a week)): toxicity
